Laboratory results: PubChem BioAssay (NCI)
“And” between values parts separate entries of the source, which are not always exact repeats. Identical values can stand only once.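 Growth conditions: 96-well plates. Treatment: test compound, 48 hours, 5 concentrations. Analysis: linear interpolation between bracketing concentrations; unreached endpoints set to highest concentration. Abbreviation: GI50, concentration required for 50% inhibition of growth. TGI marks complete inhibition of growth.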

How the values were obtained:
Experiment in all cases: NCI anticancer screen, dose series, 48 h
RXF 393 renal = system: RXF 393 renal
OVCAR-8 ovarian = system: OVCAR-8 ovarian
COLO 205 colon = system: COLO 205 colon
HCT-116 colon = system: HCT-116 colon
SK-MEL-28 melanoma = system: SK-MEL-28 melanoma
HT29 colon = system: HT29 colon
HOP-92 NSCLC = system: HOP-92 NSCLC
NCI-H322M lung = system: NCI-H322M lung
T-47D breast = system: T-47D breast
SK-OV-3 ovarian = system: SK-OV-3 ovarian
MCF7 breast = system: MCF7 breast
UO-31 renal = system: UO-31 renal
LOX IMVI melanoma = system: LOX IMVI melanoma
SK-MEL-2 melanoma = system: SK-MEL-2 melanoma
TK-10 renal = system: TK-10 renal
MOLT-4 leukemia = system: MOLT-4 leukemia
SF-539 CNS = system: SF-539 CNS
HL-60(TB) leukemia = system: HL-60(TB) leukemia
786-0 renal = system: 786-0 renal
ACHN renal = system: ACHN renal
K-562 leukemia = system: K-562 leukemia
SW-620 colon = system: SW-620 colon
M14 melanoma = system: M14 melanoma
NCI-H23 lung = system: NCI-H23 lung
NCI-H460 lung = system: NCI-H460 lung
RPMI-8226 leukemia = system: RPMI-8226 leukemia
SNB-75 CNS = system: SNB-75 CNS
CCRF-CEM leukemia = system: CCRF-CEM leukemia
MDA-MB-231 breast = system: MDA-MB-231 breast
BT-549 breast = system: BT-549 breast
A498 renal = system: A498 renal
PC-3 prostate = system: PC-3 prostate
OVCAR-4 ovarian = system: OVCAR-4 ovarian
KM12 colon = system: KM12 colon
SF-268 CNS = system: SF-268 CNS
UACC-257 melanoma = system: UACC-257 melanoma
HS 578T breast = system: HS 578T breast
OVCAR-3 ovarian = system: OVCAR-3 ovarian
MDA-MB-435 = system: MDA-MB-435
HCT-15 colon = system: HCT-15 colon
HOP-62 NSCLC = system: HOP-62 NSCLC
NCI-H522 lung = system: NCI-H522 lung
SK-MEL-5 melanoma = system: SK-MEL-5 melanoma
NCI-H226 lung = system: NCI-H226 lung
UACC-62 melanoma = system: UACC-62 melanoma
NCI/ADR-RES ovarian = system: NCI/ADR-RES ovarian
SNB-19 CNS = system: SNB-19 CNS
A549 NSCLC = system: A549 NSCLC
HCC-2998 colon = system: HCC-2998 colon
IGROV1 ovarian = system: IGROV1 ovarian
OVCAR-5 ovarian = system: OVCAR-5 ovarian
MALME-3M melanoma = system: MALME-3M melanoma
EKVX NSCLC = system: EKVX NSCLC
SR leukemia = system: SR leukemia
SN12C renal = system: SN12C renal
SF-295 CNS = system: SF-295 CNS
U251 CNS = system: U251 CNS

In the case of `CC1=C[C@H]2O[C@@H]3C[C@H]4OC(=O)/C=C\C=C\[C@H]([C@@H](C)O)OCC[C@@H](C)[C@H](O)C(=O)OC[C@@]2(CC1)[C@]4(C)[C@]31CO1`, the GI50 (RXF 393 renal) was 6.89 nM and < 1.43 nM, the TGI (RXF 393 renal) was 2.82 nM and the GI50 (OVCAR-8 ovarian) was 9.26 nM and 3.4 nM. For the same molecule, the TGI (OVCAR-8 ovarian) was 11.7 nM, the GI50 (COLO 205 colon) was 3.31 nM and 2.49 nM and the TGI (COLO 205 colon) was 5.71 nM. For the same molecule, the GI50 (HCT-116 colon) was 3.12 nM and < 1.43 nM, the TGI (HCT-116 colon) was 2.96 nM and the GI50 (SK-MEL-28 melanoma) was 3.33 nM and < 1.43 nM. For the same molecule, the TGI (SK-MEL-28 melanoma) was 4.12 nM, the GI50 (HT29 colon) was 3.48 nM and 2.09 nM and the TGI (HT29 colon) was 7.26 nM. For the same molecule, the GI50 (HOP-92 NSCLC) was 1.95 nM, the TGI (HOP-92 NSCLC) was 8.11 nM and the GI50 (NCI-H322M lung) was 3.48 nM. For the same molecule, the TGI (NCI-H322M lung) was 12.8 nM, the GI50 (T-47D breast) was 2.6 nM and the TGI (T-47D breast) was 8.48 nM. For the same molecule, the GI50 (SK-OV-3 ovarian) was 2.96 nM, the TGI (SK-OV-3 ovarian) was 8.99 nM and the GI50 (MCF7 breast) was 3.6 nM and < 1.43 nM. It also gave a TGI (MCF7 breast) of 10.9 nM, a GI50 (UO-31 renal) of 2.4 nM and a TGI (UO-31 renal) of 8.3 nM. For the same molecule, the GI50 (LOX IMVI melanoma) was 2.66 nM and < 1.43 nM, the TGI (LOX IMVI melanoma) was 8.61 nM and 4.51 nM and the GI50 (SK-MEL-2 melanoma) was 2.96 nM. The TGI (SK-MEL-2 melanoma) was 7.15 nM, the GI50 (TK-10 renal) was 3.24 nM and the TGI (TK-10 renal) was 9.78 nM. The GI50 (MOLT-4 leukemia) was 3.84 nM and < 1.43 nM, the TGI (MOLT-4 leukemia) was 1.43 nM and the GI50 (SF-539 CNS) was 9.66 nM and 2.05 nM. The TGI (SF-539 CNS) was 6.12 nM, the GI50 (HL-60(TB) leukemia) was 2.91 nM and < 1.43 nM and the TGI (HL-60(TB) leukemia) was 8.6 nM and 2.6 nM. For the same molecule, the GI50 (786-0 renal) was 2.67 nM, the TGI (786-0 renal) was 8.01 nM and the GI50 (ACHN renal) was 2.9 nM. For the same molecule, the TGI (ACHN renal) was 9.15 nM, the GI50 (K-562 leukemia) was 3.55 nM and < 1.43 nM and the TGI (K-562 leukemia) was 7.47 nM. The GI50 (SW-620 colon) was 4.98 nM and 2.53 nM, the TGI (SW-620 colon) was 13.1 nM and the GI50 (M14 melanoma) was 4.28 nM and 1.45 nM. For the same molecule, the TGI (M14 melanoma) was 3.81 nM, the GI50 (NCI-H23 lung) was 2.74 nM and the TGI (NCI-H23 lung) was 9.56 nM. The GI50 (NCI-H460 lung) was 2.77 nM and < 1.43 nM, the TGI (NCI-H460 lung) was 8.14 nM and 5.01 nM and the GI50 (RPMI-8226 leukemia) was 3.87 nM and < 1.43 nM. The TGI (RPMI-8226 leukemia) was 6.24 nM, the GI50 (SNB-75 CNS) was 2.05 nM and the TGI (SNB-75 CNS) was 4.02 nM. For the same molecule, the GI50 (CCRF-CEM leukemia) was 5.59 nM, the GI50 (MDA-MB-231 breast) was 3.63 nM and the TGI (MDA-MB-231 breast) was 9.69 nM. The GI50 (BT-549 breast) was 2.79 nM, the TGI (BT-549 breast) was 9.11 nM and the GI50 (A498 renal) was 2.5 nM and 1.65 nM. For the same molecule, the TGI (A498 renal) was 6.94 nM and 3.9 nM, the GI50 (PC-3 prostate) was 2.64 nM and the TGI (PC-3 prostate) was 9.7 nM. For the same molecule, the GI50 (OVCAR-4 ovarian) was 2.76 nM and < 1.43 nM, the TGI (OVCAR-4 ovarian) was 5.17 nM and the GI50 (KM12 colon) was 2.99 nM and 2.26 nM. For the same molecule, the TGI (KM12 colon) was 11.8 nM, the GI50 (SF-268 CNS) was 6.51 nM and 3.96 nM and the TGI (SF-268 CNS) was 14 nM. For the same molecule, the GI50 (UACC-257 melanoma) was 9.15 nM and 2.65 nM, the TGI (UACC-257 melanoma) was 7.78 nM and the GI50 (HS 578T breast) was 2.59 nM. The TGI (HS 578T breast) was 8.37 nM, the GI50 (OVCAR-3 ovarian) was 2.58 nM and < 1.43 nM and the TGI (OVCAR-3 ovarian) was 9.2 nM and 6.43 nM. For the same molecule, the GI50 (MDA-MB-435) was 3.67 nM and 1.92 nM, the TGI (MDA-MB-435) was 4.35 nM and the GI50 (HCT-15 colon) was 3.12 nM and < 1.43 nM. The TGI (HCT-15 colon) was 8.47 nM, the GI50 (HOP-62 NSCLC) was 4.94 nM and 1.58 nM and the TGI (HOP-62 NSCLC) was 6.28 nM. For the same molecule, the GI50 (NCI-H522 lung) was 2.4 nM and < 1.43 nM, the TGI (NCI-H522 lung) was 6.71 nM and 1.93 nM and the GI50 (SK-MEL-5 melanoma) was 2.11 nM and < 1.43 nM. For the same molecule, the TGI (SK-MEL-5 melanoma) was 5.11 nM and 3.07 nM, the GI50 (NCI-H226 lung) was 2.74 nM and < 1.43 nM and the TGI (NCI-H226 lung) was 7.61 nM and 6.36 nM. For the same molecule, the GI50 (UACC-62 melanoma) was 2.4 nM, the TGI (UACC-62 melanoma) was 4.98 nM and the GI50 (NCI/ADR-RES ovarian) was 4.28 nM. For the same molecule, the TGI (NCI/ADR-RES ovarian) was 22.7 nM, the GI50 (SNB-19 CNS) was 7.25 nM and 2.19 nM and the TGI (SNB-19 CNS) was 8.7 nM. The GI50 (A549 NSCLC) was 2.95 nM, the TGI (A549 NSCLC) was 9.27 nM and the GI50 (HCC-2998 colon) was 3.35 nM and < 1.43 nM. The TGI (HCC-2998 colon) was 4.64 nM, the GI50 (IGROV1 ovarian) was 3.58 nM and 1.66 nM and the TGI (IGROV1 ovarian) was 9.22 nM. For the same molecule, the GI50 (OVCAR-5 ovarian) was 2.87 nM, the TGI (OVCAR-5 ovarian) was 8.72 nM and the GI50 (MALME-3M melanoma) was 2.36 nM and < 1.43 nM. For the same molecule, the TGI (MALME-3M melanoma) was 7.29 nM and 1.5 nM, the GI50 (EKVX NSCLC) was 1.94 nM and the TGI (EKVX NSCLC) was 8.44 nM. The GI50 (SR leukemia) was 3.56 nM and < 1.43 nM, the TGI (SR leukemia) was 5.32 nM and the GI50 (SN12C renal) was 3.26 nM. The TGI (SN12C renal) was 11.2 nM, the GI50 (SF-295 CNS) was 2.85 nM and the TGI (SF-295 CNS) was 7.42 nM. For the same molecule, the GI50 (U251 CNS) was 5.69 nM and 2.79 nM and the TGI (U251 CNS) was 9.94 nM.
